# Test results as given in patent publication US10155764B2, “Therapeutic compounds and uses thereof” (GENENTECH, INC., priority 2014, dated 2018).
# The chains behind the UniProt entries cited, without tags or fusion partners. Residues count along the entry.
# UniProt Q92831, 719-832: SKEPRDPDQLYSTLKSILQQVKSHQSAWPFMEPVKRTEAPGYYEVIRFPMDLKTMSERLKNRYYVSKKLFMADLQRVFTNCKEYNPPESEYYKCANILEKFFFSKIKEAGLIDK
# Molecular target: PCAF719-832 bromodomain (Homo sapiens (Human), UniProt Q92831)
# Assay: PCAF AlphaLisa binding assay
# Conditions: PCAF bromodomain 225 nM, biotinylated small molecule ligand 6 nM
row,Structure (SMILES),IC50 [nM]
1,"C[C@H](Nc1nn(C)c(=O)c2ccccc12)[C@H](c1cnn(-c2ccccc2)c1)N(C)C (single isomer, unassigned) [Example 57]",75
2,"C[C@H](Nc1nn(C)c(=O)c2cccnc12)[C@H](c1ccc(C(=O)N2CCCC2)cc1)N(C)C (single isomer, unassigned) [Example 83]",71
3,"CN(C)[C@@H]1CCC[C@@H]1Nc1nn(C)c(=O)c2cccnc12 (single isomer, unassigned) [Example 16B]",860
4,"CN(C)[C@@H]1CCCC[C@H]1Nc1nn(C)c(=O)c2ccccc12 (racemic) [Example 52, 4-(((1R,2R)-2-(dimethylamino)cyclohexyl)amino)-2-methylphthalazin-1(2H)-one]",820
5,"C[C@H](Nc1nn(C)c(=O)c2ccccc12)[C@H](c1ccc(Oc2ccccc2)cc1)N(C)C (single isomer, unassigned) [Example 63]",25
6,"CN(C)[C@H]1CN(c2ccc(Cl)cc2)CC[C@H]1Nc1nn(C)c(=O)c2ccccc12 (single isomer, unassigned) [Example 33]",170
7,"CN(C)C1CN(c2ccc(Cl)cc2)CCC1Nc1nn(C)c(=O)c2cccnc12 (single isomer, unassigned) [Example 32B, 8-((1-(4-chlorophenyl)-3-(dimethylamino)piperidin-4-yl)amino)-6-methylpyrido[2,3-d]pyridazin-5(6H)-one]",69
8,"CN(C)[C@H]1CCC[C@H]1Nc1nn(C)c(=O)c2cccnc12 (single isomer, unassigned) [Example 16A]",57
9,"CN(C)[C@H]1CN(c2ccc(Cl)cc2)CC[C@@H]1Nc1nn(C)c(=O)c2ccccc12 (single isomer, unassigned) [Example 34]",40
10,"CN1CCCCC(Nc2nn(C)c(=O)c3ccccc23)C1 (racemic) [Example 45, 2-methyl-4-((1-methylazepan-3-yl)amino)phthalazin-1(2H)-one]",1200
11,"CC(=O)Nc1cccc([C@@H]([C@H](C)Nc2nn(C)c(=O)c3cccnc23)N(C)C)c1 (single isomer, unassigned) [Example 72]",99
12,"CN(C)[C@@H]1CCC[C@H]1Nc1nn(C)c(=O)c2ccccc12 (racemic) [Example 53, 4-(((1R,2R)-2-(dimethylamino)cyclopentyl)amino)-2-methylphthalazin-1(2H)-one]",2100
